Values of other authors, collected in patent US20180373846A1, “METHODS AND SYSTEMS FOR ORGANIC SOLUTE SAMPLING OF AQUEOUS AND HETEROGENEOUS ENVIRONMENTS” (University of Maryland, Baltimore, priority 2014, published 2018).

Target: β2AR (Homo sapiens, UniProt P07550)
Details: experimental, from cited references

ΔGbind: −8.60
Compound: CNC[C@H](O)c1ccc(O)c(O)c1 [Adrenaline(epinephrine)]
